Biological target: T1, mouse alpha 2B receptor (m α2B) (Mus musculus, UniProt P30545)
T1 construct: expressed in transfected cells
Test: FLIPR calcium flux assay in HEK 293 m α2B/Gqi5 cells (Fluo-4 dye)
Type: cell-based
Conditions: FIG. 2, second experiment; 35° C.; 96 well
Source text: This example describes the methodology used in assaying compounds for the ability to modulate the α2B receptor in a high throughput assay format in which the “readout” is the measurement of a change in intracellular calcium flux due to the use of the “promiscuous” Gqi5 hybrid G-protein, linking the α2B receptor (normally coupled to the adenylyl cyclase pathway) to the PLC pathway. Changes in intracellular calcium flux are monitored using a dye that becomes fluorescent when it binds free Ca^++ ion.
HEK 293 cells are stably co-transfected with two plasmids, the first encoding the mouse alpha 2B receptor (m α2B), and the second encoding the hybrid Gqi5 protein. […] The nucleotide sequence encoding the human Gqi5 protein is contained in the reference Aiyar et al., Human AT1 receptor is a single copy gene: characterization in a stable cell line. Mol. Cell. […] These references are hereby all incorporated by reference herein. […]
Each well of cells (in a 96 well microtiter dish) is assayed for activity in the FLIPR assay using the Fluo-4® calcium indicator dye to detect calcium flux. The structure of this dye, which can be purchased from Molecular Probes, Inc., is as follows:
The cells are loaded with this dye using the manufacturer's recommendations, and washed 3× with FLIPR Buffer. Assays are conducted at room temperature (unless otherwise indicated in the following examples). […]

By UniProt entry, the sequences of proteins in these tests, tags left out.
UniProt P30545, whole entry: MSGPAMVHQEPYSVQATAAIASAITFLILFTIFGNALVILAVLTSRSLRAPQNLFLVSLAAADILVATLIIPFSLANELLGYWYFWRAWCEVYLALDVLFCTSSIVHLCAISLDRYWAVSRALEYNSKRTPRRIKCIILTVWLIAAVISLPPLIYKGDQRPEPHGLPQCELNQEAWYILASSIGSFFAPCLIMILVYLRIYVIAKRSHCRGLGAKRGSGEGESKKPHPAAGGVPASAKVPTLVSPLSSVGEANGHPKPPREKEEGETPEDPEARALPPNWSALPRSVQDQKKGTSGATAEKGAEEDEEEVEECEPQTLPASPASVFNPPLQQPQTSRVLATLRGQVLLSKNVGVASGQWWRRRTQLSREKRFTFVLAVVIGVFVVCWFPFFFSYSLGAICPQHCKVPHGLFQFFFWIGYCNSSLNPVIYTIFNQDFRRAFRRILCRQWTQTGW

With norepinephrine the EC50 was 2 nM.
